Molecular target: T1, Human Matriptase-1 (Homo sapiens, UniProt Q9Y5Y6)
T1 sequence (Q9Y5Y6 615-854 limits assumed): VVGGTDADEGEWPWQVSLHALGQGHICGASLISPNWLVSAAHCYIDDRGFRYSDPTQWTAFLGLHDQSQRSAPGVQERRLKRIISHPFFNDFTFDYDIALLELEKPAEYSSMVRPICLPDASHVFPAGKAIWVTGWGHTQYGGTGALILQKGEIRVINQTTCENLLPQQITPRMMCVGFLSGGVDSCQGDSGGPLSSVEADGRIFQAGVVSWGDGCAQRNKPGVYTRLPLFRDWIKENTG
Assay: Ki of WX-UK1, chromogenic substrate cleavage
Type: biochemical
Details: 37° C., 0.5% BSA, pH=7.4, read-out: Ki (μM) Mean ± SD (n)

Ki: ~0.2 µM
Compound: CCOC(=O)N1CCN(C(=O)C(Cc2cccc(C(=N)N)c2)NS(=O)(=O)c2c(C(C)C)cc(C(C)C)cc2C(C)C)CC1 (stereo not drawn) [WX-UK1, N-α-(2,4,6-triisopropylphenylsulfonyl)-3-amidino-(L)-phenylalanine 4-ethoxycarbonylpiperazide]
